Values quoted from earlier work as cited in patent US20090220503A1, “METHOD FOR TREATING CANCERS WITH INCREASED RAS SIGNALING” (THE TRUSTEES OF BOSTON UNIVERSITY, priority 2006, published 2009).

Tests used:
PKCα = PKCα (Homo sapiens, UniProt P17252); settings: cited from earlier work
PKA = settings: cited from earlier work

For Balanol, the “δ > α: Ratio of IC50 for PKCδ to IC50 PKCα” value (PKCα) is given as 9x and the “δ > PKA: Ratio of IC50 for PKCδ to IC50 PKA” value (PKA) is given as 12x.
